Laboratory results as given in patent US7045283B2, “Methods of high-throughput screening for internalizing antibodies” (The Regents of the University of California, priority 2000, dated 2006).

Tested on: ErbB2-expressing SKBR3 tumor cells
Test: Chelated Ligand Internalization Assay (CLIA) on SKBR3 cells
Assay type: cell-based, Human
Conditions: four hours of internalization, washed with 1 mM EDTA, fluorescence
Method: Liposomes are prepared from 1-palmitoyl-2-oleoyl-phosphatidylcholine (POPC) and cholesterol (6:4 molar ratio) and varying amounts of NTA-DOGS (Avanti Lipids; 0.5–5 mol. % of POPC amount) by lipid film hydration in solution containing 35 mM 8-hydroxypyrene-1,3,5-trisulfonic acid sodium salt (HPTS) (Molecular Probes Inc., Oreg., USA), pH 7.0, adjusted to the osmolality of 280 mmol/kg with NaCl. In some cases, the liposomes were made using 1,2-distearoyl-phosphatidyicholine (DSPC) instead of POPC, and the lipophilic fluorescent labels DiIC18(3)-DS and DiIC18(5)-DS (0.1–1 mol. % of the liposome phospholipid) were used instead of HPTS, with the same results. In these cases, hydration is at 55–60° C. in an aqueous 140 mM NaCl buffered with 5–20 mM 4-(N-2-hydroxyethyl-piperasino)ethylsulfonic acid sodium salt (HEPES) to pH 7.2–7.4. […]
Human breast cancer cells SKBR3, SKOV3, BT474, MCF7, MDA-MB-453, MDA-MB-468 (American Type Culture Collection, ATCC) were grown to 80–90% confluence in the media type recommended by ATCC supplemented with 10% fetal calf serum (FCS) and harvested by trypsinization using standard techniques. […] Cells were lysed in 50 PL 0.01 M NaOH before reading fluorescence at 460/530 nm in a RC4 microfluorimeter (BIOTEK).

Herceptin: recombinant, humanized anti-HER2 monoclonal IgG (Genentech)
internalization of NTA-liposomes (CLIA): did not increase the uptake
